Data published in ChEMBL document CHEMBL5113526, “Design, Synthesis, and Biological Evaluation of Androgen Receptor Degrading and Antagonizing Bifunctional Steroidal Analogs for the Treatment of Advanced Prostate Cancer” (J Med Chem, 2022).

Tested on: LNCaP C4-2B
Assay: animal or person
Conditions: Homo sapiens

CNC(=O)c1ccc(N2C(=S)N(c3ccc(C#N)c(C(F)(F)F)c3)C(=O)C2(C)C)cc1F [ENZALUTAMIDE]
IC50: 22.2 µM
